The record followed here is PubChem BioAssay AID651780 (The Scripps Research Institute Molecular Screening Center, 2012).

This is a selection; strong and weak results do not stand in their true shares. Active and inactive are the calls of the source. Rule as the data show it: active = inhibition above about 22%; inactive = the rest.

The assay in a line: calcium response inhibition in counter-screen line – cell-based, fluorescence, counter-screen for hTAAR1 antagonist project (AID 651780).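 Also: CHO-Ga16 host cells stimulated with ATP at an EC80 level; 0% = agonist EC80 plus vehicle and 100% = vehicle without agonist.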 Particulars: counterscreen cell line, antagonist mode, at 3 µM, hits give high values. In general terms: Counterscreens check selectivity or assay interference.
In the case of `Cc1ccccc1OP(=O)(Nc1ccccn1)Oc1ccccc1C`, the inhibition is active: 23.7%.

In general, inhibition refers to the change of the read-out against control, counted positive when it falls.
